The source of these data is publication PMC12389735, “Polyoxypregnane Aryl Esters Prepared from Metaplexis japonica (Thunb.) Makino and Their Role in Reversing Multidrug Resistance in HepG2/Dox Cells” (Pharmaceuticals, 2025).

As usually defined, the IC50 is the midpoint of a concentration-inhibition curve.

The test system of this assay is HepG2 cells. As to the kind of experiment: cells. The note with it: Homo sapiens, HepG2, 48 h, read-out: IC50 ± SD HepG2.

On to `CC[C@]1(O)C[C@@H]2CN(CCc3c([nH]c4ccccc34)[C@@](C(=O)OC)(c3cc4c(cc3OC)N(C)[C@H]3[C@@](O)(C(=O)OC)[C@H](OC(C)=O)[C@]5(CC)C=CCN6CC[C@]43[C@@H]65)C2)C1` [Vinblastine, reference compound], for which the IC50 came out at 17 ± 4 nM.

With `CC(=O)O[C@H]1C(=O)[C@@]2(C)[C@H]([C@H](OC(=O)c3ccccc3)[C@]3(O)C[C@H](OC(=O)[C@H](O)[C@@H](NC(=O)c4ccccc4)c4ccccc4)C(C)=C1C3(C)C)[C@]1(OC(C)=O)CO[C@@H]1C[C@@H]2O` [Paclitaxel, reference compound], the IC50 was determined as 31 ± 2 nM.
